Experimental data published in ChEMBL document CHEMBL2203264, “Optimization of imidazo[4,5-b]pyridine-based kinase inhibitors: identification of a dual FLT3/Aurora kinase inhibitor as an orally bioavailable preclinical development candidate for the treatment of acute myeloid leukemia” (J Med Chem, 2012).

The chains behind the UniProt entries cited, without tags or fusion partners.
UniProt P33261, whole entry: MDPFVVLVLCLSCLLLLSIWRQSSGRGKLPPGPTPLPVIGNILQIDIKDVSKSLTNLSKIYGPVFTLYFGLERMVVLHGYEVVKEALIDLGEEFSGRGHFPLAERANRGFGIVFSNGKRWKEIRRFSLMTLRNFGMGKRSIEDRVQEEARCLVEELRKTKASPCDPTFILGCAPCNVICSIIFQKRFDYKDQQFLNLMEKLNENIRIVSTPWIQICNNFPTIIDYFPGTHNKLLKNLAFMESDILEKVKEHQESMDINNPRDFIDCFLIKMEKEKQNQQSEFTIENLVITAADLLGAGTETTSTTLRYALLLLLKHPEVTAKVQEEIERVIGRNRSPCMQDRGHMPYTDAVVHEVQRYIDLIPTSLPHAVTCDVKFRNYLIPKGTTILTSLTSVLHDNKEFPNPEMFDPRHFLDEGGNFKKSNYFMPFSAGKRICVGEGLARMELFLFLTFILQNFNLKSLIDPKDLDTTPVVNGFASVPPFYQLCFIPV
UniProt P11712, whole entry: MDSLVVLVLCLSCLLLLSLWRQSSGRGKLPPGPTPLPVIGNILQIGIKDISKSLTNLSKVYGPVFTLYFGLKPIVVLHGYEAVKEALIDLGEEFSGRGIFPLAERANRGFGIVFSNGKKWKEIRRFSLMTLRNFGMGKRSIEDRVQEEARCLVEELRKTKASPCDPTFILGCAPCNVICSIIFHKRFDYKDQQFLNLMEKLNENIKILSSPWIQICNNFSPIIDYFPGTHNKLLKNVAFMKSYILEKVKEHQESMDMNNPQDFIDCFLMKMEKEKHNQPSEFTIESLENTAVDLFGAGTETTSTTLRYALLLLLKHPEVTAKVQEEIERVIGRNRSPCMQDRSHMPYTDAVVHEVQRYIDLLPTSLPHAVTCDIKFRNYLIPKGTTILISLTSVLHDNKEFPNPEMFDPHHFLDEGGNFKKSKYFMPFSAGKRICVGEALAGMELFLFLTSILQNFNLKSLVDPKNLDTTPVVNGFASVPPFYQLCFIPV

How the values were obtained:
[1] = biological target: Cytochrome P450 2C19 (Homo sapiens, UniProt P33261)
[2] = biological target: Cytochrome P450 2C9 (Homo sapiens, UniProt P11712); test: Inhibition of human liver microsome CYP2C9 by LC-MS-MS analysis; format: ADME
[3] = Growth inhibition of human MOLM11 cells; format: functional
[4] = test system: SW-620; test: cells; details: Homo sapiens, SW-620, 72 h

SMILES	pIC50 [1]	pIC50 [2]	GI50 [3]	GI50 [4]
Cc1nn(C)cc1-c1nc2c(N3CCN(Cc4ccc(Cl)cc4)CC3)c(Cl)cnc2[nH]1 [MOBINITINIB]	< 5.00	< 5.00	291 nM	
Cc1cc(CN2CCN(c3c(Cl)cnc4[nH]c(-c5cn(C)nc5C5CC5)nc34)CC2)no1				1350 nM

pIC50: −log10 of the molar value.
